## Antibody variant affinities, Ab-14 heavy chain, assay 1

Data: MIT Lincoln Laboratory AlphaSeq set, Engelhart et al. 2022, doi:10.1038/s41597-022-01779-4, as distributed in FLAb.

Binding partner: SARS-CoV-2 spike HR2 peptide, sequence PDVDLGDISGINAS.

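The starting antibody came from a phage panning campaign against this peptide. The library (AAYL49) carries one to three amino acid substitutions per variant, with no insertions or deletions. Affinity was read by AlphaSeq, a pooled yeast mating assay with surface-displayed partners. After mating in shaken culture at 30 °C for 16 h, diploids were selected and their barcode pairs sequenced. Read counts were normalised to the haploid input and turned into Kd by a linear fit to BCL2-family pairs of known affinity, for each replicate. Mating was done three times.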

Parent: Ab-14, a human scFv built as VH, a (GGGGS)3 linker, VL. Only the CDRs of the heavy chain vary.
VH: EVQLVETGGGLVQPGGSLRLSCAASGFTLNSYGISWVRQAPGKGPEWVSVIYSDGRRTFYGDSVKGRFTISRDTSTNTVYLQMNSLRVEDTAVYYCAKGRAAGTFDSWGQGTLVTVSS
VL: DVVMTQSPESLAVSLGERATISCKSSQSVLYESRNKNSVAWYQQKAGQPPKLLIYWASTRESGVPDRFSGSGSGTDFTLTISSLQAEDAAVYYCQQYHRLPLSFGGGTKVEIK

Positions count from residue 1 of the parent VH; T28A puts A in place of T. This list gathers variants with a substitution at I34 (VH, numbered from residue 1). The Kd shown is the geometric mean over detected replicates; a lower Kd is a better binder. An entry "nd" has no value in the source: the pair was not observed among the diploids in any replicate. This suggests poor binding but is not conclusive. For reference, the parent read 4.4 nM as the reference entry and 13 µM (one replicate of three) as a member of this library.

changes	apparent Kd	detected
T28A/I34F/S53P	nd	0 of 3
I34C/S35H/T58Y	nd	0 of 3
I34F/Y52H/G103W	nd	0 of 3
I34R/A102S	14 µM	2 of 3
Y32K/I34Q/T104K	nd	0 of 3
I34D/T58Y/Y60A	nd	0 of 3
I34R/S35H/Y52L	nd	0 of 3
F27E/G33V/I34N	nd	0 of 3
I34H/R56C/G99Y	nd	0 of 3
Y32E/I34C/D62L	nd	0 of 3
I34D/Y60P/K65R	120 µM	1 of 3
F27R/I34E/A101N	1.5 µM	1 of 3
I34V/S35M/V64M	nd	0 of 3
I34N/V50K/T58D	72 µM	1 of 3
G26V/I34R/I51A	nd	0 of 3
I34M/G61Q/V64L	nd	0 of 3
I34C/R57Y/G103Y	230 µM	2 of 3
Y32S/I34A/F105A	490 µM	2 of 3
I34A/D54N/R56A	32 µM	2 of 3
I34N/T58Q/G61P	nd	0 of 3
I34L/K65R/F105K	nd	0 of 3
I34L/I51T/G103K	nd	0 of 3
N30A/I34S/G61R	1.3 µM	1 of 3
G33A/I34T/S107G	nd	0 of 3
I34Q/S35N/V50N	12 µM	2 of 3
N30E/I34Q/F105Y	1.6 µM	1 of 3
N30Q/I34K/R56H	12 nM	3 of 3
I34M/K65T/A102I	nd	0 of 3
I34Y/T58L/R100I	36 µM	3 of 3
I34M/F59D/G61T	45 µM	1 of 3
L29C/I34F/G55I	nd	0 of 3
T28Q/I34S/D106V	nd	0 of 3
I34R/F105T/S107N	nd	0 of 3
G33I/I34D/F59T	nd	0 of 3
I34C/S35G/K65I	nd	0 of 3
I34C/S63G	nd	0 of 3
N30C/I34N/V50L	13 µM	1 of 3
I34N/S63L/A102Q	nd	0 of 3
I34S/S53I/A101H	nd	0 of 3
L29K/I34D	21 µM	1 of 3
I34P/D62V/R100T	nd	0 of 3
I34T/G55I/S107V	nd	0 of 3
N30C/I34T	nd	0 of 3
I34G/I51C	42 µM	2 of 3
I34N/S35L/G55A	800 nM	1 of 3
L29Y/I34L/D54K	560 nM	1 of 3
I34E/Y52R/A102N	4.0 µM	1 of 3
I34M/R100P	400 nM	3 of 3
G33K/I34G/S35C	2.5 µM	2 of 3
G26M/F27W/I34K	100 µM	1 of 3
G33P/I34T/F105E	2.2 µM	2 of 3
I34W/R57M	nd	0 of 3
I34N/A102V/F105Q	nd	0 of 3
I34L/G55D	27 µM	2 of 3
S31K/I34V/S107I	60 nM	3 of 3
G33L/I34D/S35T	nd	0 of 3
I34N/K65R/T104M	nd	0 of 3
N30E/I34H/D106C	nd	0 of 3
L29D/I34N/G99K	nd	0 of 3
G26K/I34V/D62Y	180 µM	1 of 3
T28G/I34N/R57S	55 µM	2 of 3
G26D/I34F	3.3 µM	1 of 3
I34Q/Y52T/F59V	48 µM	2 of 3
G33I/I34L/S107V	48 µM	1 of 3
G26W/S31K/I34H	18 µM	1 of 3
G26E/N30A/I34L	29 µM	3 of 3
F27D/I34F/F59C	97 µM	1 of 3
I34E/F59V/R100A	2.1 µM	2 of 3
F27N/I34Q/V64L	nd	0 of 3
T28L/I34A/I51N	82 µM	1 of 3
S31M/I34D/R100K	nd	0 of 3
I34M/T58P/D62M	2.9 µM	1 of 3
N30L/I34T/R56D	27 µM	1 of 3
I34W/S63L/R100W	nd	0 of 3

Extract of 5 entries:

changes	apparent Kd	detected
I34R/S35H/Y52L	nd	0 of 3
Y32K/I34Q/T104K	nd	0 of 3
L29D/I34N/G99K	nd	0 of 3
I34P/D62V/R100T	nd	0 of 3
N30C/I34T	nd	0 of 3

Three control strains display no target. For library AAYL49, 15% of the pairings with them gave a signal, with a median of 11 µM and one signal in twenty below 680 nM, so weak values seen in few replicates may be background.